Read-outs that look alike come from different tables or passages of the source.
Legend:
Assay in all cases: cell-based
CB1R [1] = target: T1, CB1R (Homo sapiens, UniProt P21554)
CB1R [2] = target: T1, CB1R; remark: listed apart in the source
CB1R [3] = target: T1, CB1R; remark: listed apart in the source
CB1R [4] = target: T1, CB1R; conditions: IC50, PLCβ3 phosphorylation
CB1R [5] = target: T1, CB1R; format: cell-based
CB1R [6] = target: T1, CB1R; format: cell-based; remark: listed apart in the source
[7] = IC50, BRETEff β-arrestin1-Rluc/CB1-GFP2, 2-AG
[8] = IC50, BRETEff β-arrestin1-Rluc/CB1-GFP2, AEA
[9] = IC50, BRETEff β-arrestin1-Rluc/CB1-GFP2, CP55,940

Chains of the proteins cited; added tags and fusions are not shown.
UniProt P21554, whole entry: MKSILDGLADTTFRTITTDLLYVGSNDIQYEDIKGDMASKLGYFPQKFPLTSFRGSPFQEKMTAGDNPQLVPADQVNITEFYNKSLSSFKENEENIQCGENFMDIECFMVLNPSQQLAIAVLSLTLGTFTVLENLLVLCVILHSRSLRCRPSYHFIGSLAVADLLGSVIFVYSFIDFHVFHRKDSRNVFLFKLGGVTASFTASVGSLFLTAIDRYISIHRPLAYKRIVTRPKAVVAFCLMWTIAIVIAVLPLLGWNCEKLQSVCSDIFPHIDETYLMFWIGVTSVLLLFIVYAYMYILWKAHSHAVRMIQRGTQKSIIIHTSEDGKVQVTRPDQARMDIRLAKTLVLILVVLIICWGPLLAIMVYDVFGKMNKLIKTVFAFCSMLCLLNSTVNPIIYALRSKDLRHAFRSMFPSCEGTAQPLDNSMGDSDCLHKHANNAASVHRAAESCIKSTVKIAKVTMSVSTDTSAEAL

With O=C(Nc1ccc(Cl)cc1)Nc1cccc(-c2cccc(N3CCCC3)n2)c1 [PSNCBAM-1, 1-(4-chlorophenyl)-3-(3-(6-(pyrrolidin-1-yl)pyridine-2-yl)phenyl)urea] the “Emax (BRETEff), 2-AG” value (CB1R [1]) was 0.64 ± 0.06, the “Emax (BRETEff), AEA” value (CB1R [1]) was 0.50 ± 0.04 and the “Emax (BRETEff), CP55,940” value (CB1R [1]) was 0.81 ± 0.10. It also gave an IC50 (CB1R [1]; [7]) of 0.162 µM, an IC50 (CB1R [1]; [8]) of 0.263 µM and an IC50 (CB1R [1]; [9]) of 0.209 µM. For the same compound, the “Emax (BRETEff), 2-AG” value (CB1R [2]) was 0.63 ± 0.03, the “Emax (BRETEff), AEA” value (CB1R [2]) was 0.45 ± 0.03 and the “Emax (BRETEff), CP55,940” value (CB1R [2]) was 0.75 ± 0.08. It also gave an IC50 (CB1R [2]; [7]) of 0.0741 µM, an IC50 (CB1R [2]; [8]) of 0.355 µM and an IC50 (CB1R [2]; [9]) of 0.316 µM. The “Emax (BRETEff), 2-AG” value (CB1R [3]) was 0.68 ± 0.03, the “Emax (BRETEff), AEA” value (CB1R [3]) was 0.47 ± 0.02 and the “Emax (BRETEff), CP55,940” value (CB1R [3]) was 0.71 ± 0.02. It also gave an IC50 (CB1R [3]; [7]) of 0.355 µM, an IC50 (CB1R [3]; [8]) of 0.51 µM and an IC50 (CB1R [4]; 2-AG) of 0.166 µM. The IC50 (CB1R [4]; AEA) was 0.0955 µM, the “Emax, cAMP (pathway ligand bias summary)” value (CB1R [5]) was 0.42 ± 0.03 ^† and the “effect on cAMP levels in the absence of orthosteric agonists (inverse agonism)” value (CB1R [5]) was “increased cAMP levels significantly”. The IC50 (CB1R [5]; IC50, cAMP (pathway ligand bias summary)) was 0.936 µM, the IC50 (CB1R [5]; IC50, cAMP, 2-AG) was 0.978 µM and the IC50 (CB1R [5]; IC50, cAMP, AEA) was 0.87 µM. For the same compound, the IC50 (CB1R [5]; IC50, cAMP, CP55,940) was 0.962 µM, the Emax (CB1R [5]; read-out: Emax (% cAMP inhibition), 2-AG) was 40 ± 2.13% and the Emax (CB1R [5]; read-out: Emax (% cAMP inhibition), AEA) was 40.7 ± 2.45%. For the same compound, the Emax (CB1R [5]; read-out: Emax (% cAMP inhibition), CP55,940) was 45.7 ± 3.93%, the “Emax, β-arrestin1 (pathway ligand bias summary)” value (CB1R [6]) was 0.63 ± 0.04 and the IC50 (CB1R [6]) was 0.293 µM. The “inverse agonism toward β-arrestin1 recruitment” value (CB1R [6]) was “neither GAT100, Org27569, nor PSNCBAM-1 (1 nM to 10 μM) evidenced inverse agonism”.
